## Permeability data for macrocyclic peptides

Data: CycPeptMPDB; original report Townsend et al. 2020, doi:10.26434/chemrxiv.13335941.v1.

PAMPA measures passive passage through an artificial lipid membrane.
Values are log10 P with P in cm/s, so -5 is more permeable than -7.

- CC(C)C[C@@H]1C(=O)N2CCC[C@@H]2C(=O)N[C@H](CC(C)C)C(=O)N[C@@H](Cc2ccccc2)C(=O)N[C@@H](Cc2ccccc2)CC(=O)N[C@H](CC(C)C)C(=O)N1C: PAMPA -5.12 (log10 cm/s)
- CC(C)C[C@H]1NC(=O)CN(Cc2ccccc2)C(=O)[C@@H](C)N(C)C(=O)[C@@H]2CCCN2C(=O)[C@H](Cc2ccccc2)NC(=O)CN(Cc2ccccc2)C(=O)[C@H]2CCCN2C1=O: PAMPA -5.57 (log10 cm/s)
- CC(C)C[C@@H]1C(=O)N(C)[C@@H](CC(C)C)C(=O)N2CCC[C@H]2C(=O)N(Cc2ccccc2)CC(=O)N[C@@H](Cc2ccccc2)C(=O)N2CCC[C@H]2C(=O)N(C)[C@@H](C)C(=O)N1C: PAMPA -5.81 (log10 cm/s)
- CC(C)C[C@@H]1NC(=O)[C@@H](CC(C)C)N(C)C(=O)[C@H](C)N(C)C(=O)[C@@H]2CCCN2C(=O)[C@H](Cc2ccccc2)NC(=O)[C@@H](CC(C)C)N(C)C(=O)[C@@H]2CCCN2C1=O: PAMPA -5.47 (log10 cm/s)
- CC(C)C[C@@H]1C(=O)N2CCC[C@H]2C(=O)N(C)[C@@H](CC(C)C)C(=O)N[C@@H](Cc2ccccc2)C(=O)N2CCC[C@@H]2C(=O)N[C@H](C)C(=O)N[C@H](CC(C)C)C(=O)N1C: PAMPA -6.12 (log10 cm/s)
- CC(C)C[C@@H]1NC(=O)[C@@H]2CCCN2C(=O)CN(Cc2ccccc2)C(=O)[C@H](CC(C)C)NC(=O)C[C@H](Cc2ccccc2)NC(=O)[C@H](Cc2ccccc2)NC1=O: PAMPA -5.78 (log10 cm/s)
- CC(C)C[C@@H]1NC(=O)[C@H](CC(C)C)N(C)C(=O)[C@@H](C)N(C)C(=O)[C@H]2CCCN2C(=O)[C@H](Cc2ccccc2)NC(=O)[C@@H](CC(C)C)NC(=O)[C@@H]2CCCN2C1=O: PAMPA -6.33 (log10 cm/s)
- CC(C)C[C@H]1NC(=O)C[C@H](Cc2ccccc2)NC(=O)[C@H](Cc2ccccc2)NC(=O)[C@H](CC(C)C)N(C)C(=O)[C@H]2CCCN2C(=O)[C@H](CC(C)C)N(C)C1=O: PAMPA -5.50 (log10 cm/s)
- CC(C)C[C@H]1NC(=O)C[C@H](Cc2ccccc2)NC(=O)[C@@H]2CCCN2C(=O)[C@H](Cc2ccccc2)NC(=O)[C@H](CC(C)C)N(C)C(=O)[C@@H]2CCCN2C(=O)[C@@H](CC(C)C)NC1=O: PAMPA -5.91 (log10 cm/s)
- CC(C)C[C@@H]1NC(=O)C[C@H](Cc2ccccc2)NC(=O)[C@H](Cc2ccccc2)NC(=O)[C@@H](CC(C)C)NC(=O)[C@@H]2CCCN2C(=O)[C@H](CC(C)C)N(C)C1=O: PAMPA -6.17 (log10 cm/s)
- CC(C)C[C@@H]1NC(=O)[C@@H](C)N(C)C(=O)[C@H](Cc2ccccc2)NC(=O)CN(Cc2ccccc2)C(=O)[C@@H]2CCCN2C(=O)[C@@H](CC(C)C)NC1=O: PAMPA -5.97 (log10 cm/s)
- CC(C)C[C@H]1NC(=O)C[C@H](Cc2ccccc2)NC(=O)[C@H]2CCCN2C(=O)[C@H](Cc2ccccc2)NC(=O)[C@H](CC(C)C)N(C)C(=O)[C@H]2CCCN2C(=O)[C@H](CC(C)C)N(C)C1=O: PAMPA -5.51 (log10 cm/s)
- CC(C)C[C@H]1NC(=O)[C@@H](C)NC(=O)[C@@H]2CCCN2C(=O)[C@H](Cc2ccccc2)NC(=O)[C@H](CC(C)C)N(C)C(=O)[C@H]2CCCN2C(=O)CN(Cc2ccccc2)C1=O: PAMPA -5.71 (log10 cm/s)
- CC(C)C[C@@H]1NC(=O)C[C@H](Cc2ccccc2)NC(=O)[C@H](Cc2ccccc2)NC(=O)[C@H](CC(C)C)N(C)C(=O)[C@H]2CCCN2C(=O)[C@@H](CC(C)C)N(C)C1=O: PAMPA -5.31 (log10 cm/s)
- CCCN1CC(=O)N(C)[C@@H](CC(C)C)C(=O)N[C@@H](CC(C)C)C(=O)N2CCC[C@H]2C(=O)N[C@@H](CC(C)C)C(=O)N[C@@H](Cc2ccccc2)C1=O: PAMPA -5.40 (log10 cm/s)

The first 2 entries again:

* CC(C)C[C@@H]1C(=O)N2CCC[C@@H]2C(=O)N[C@H](CC(C)C)C(=O)N[C@@H](Cc2ccccc2)C(=O)N[C@@H](Cc2ccccc2)CC(=O)N[C@H](CC(C)C)C(=O)N1C: PAMPA -5.12 (log10 cm/s)
* CC(C)C[C@H]1NC(=O)CN(Cc2ccccc2)C(=O)[C@@H](C)N(C)C(=O)[C@@H]2CCCN2C(=O)[C@H](Cc2ccccc2)NC(=O)CN(Cc2ccccc2)C(=O)[C@H]2CCCN2C1=O: PAMPA -5.57 (log10 cm/s)

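Lipid, pH, incubation time, direction and concentration are not recorded in the data file. The list need not hold all peptides of the study. Peptides that the database sets to -10, its floor, are left out.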